Data on 1 substance can be found in US20080293818A1, “Regulator of Physiological Function of Ghrelin and Use Thereof” (priority 2004, published 2008).

By UniProt entry, the sequences of proteins in these tests, tags left out.
UniProt O08725, whole entry: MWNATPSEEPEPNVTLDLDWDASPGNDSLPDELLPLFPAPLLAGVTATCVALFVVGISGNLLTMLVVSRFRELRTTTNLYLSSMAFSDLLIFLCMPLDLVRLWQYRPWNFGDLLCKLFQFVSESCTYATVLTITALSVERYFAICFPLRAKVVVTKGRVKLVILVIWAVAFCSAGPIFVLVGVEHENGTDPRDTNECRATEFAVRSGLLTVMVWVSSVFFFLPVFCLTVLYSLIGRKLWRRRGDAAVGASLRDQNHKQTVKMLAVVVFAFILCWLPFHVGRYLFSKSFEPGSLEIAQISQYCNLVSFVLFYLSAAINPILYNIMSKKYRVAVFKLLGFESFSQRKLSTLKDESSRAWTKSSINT

This experiment concerns the target T1, rat GHS-R (ghrelin receptor) (Rattus norvegicus, UniProt O08725).
T1 construct: expressed in transfected cells
As to the kind of experiment: Calcium mobilization assay of ghrelin in CHO-GHSR 62 cells. The experiment is classed as cell-based. As to the method: Before the assay, CHO-GHSR 62 cells [D1] stably expressing rat GHS-R (ghrelin receptor) were plated for 12-15 hours in flat-bottom, black-walled 96-well plates (Corning Costar Corporation, Cambridge, Mass.) at 4×10^4 cells/well. Cells were then preincubated for 1 hour with 4 μM Flo-4-AM-fluorescent indicator dye (Molecular Probes, Inc., Eugene, Oreg.) dissolved in assay buffer (Hanks' balanced salts solution (HBSS), 10 mM HEPES, 2.5 mM probenecid) supplemented with 1% fetal calf serum (FCS). After washing four times with assay buffer, samples, each dissolved in 100 μl basic buffer with 0.01% bovine serum albumin, were added to the prepared cells. Changes in the intracellular calcium concentration were measured using a FLEX station (Molecular Devices, Sunnyvale, Calif.).
Using the ghrelin calcium-mobilization assay, the activity of n-heptanoyl ghrelin to stimulate GHS-R (ghrelin receptor) activity was examined.
Time courses of fluorescence changes induced by n-octanoyl ghrelin (closed circle), n-heptanoyl ghrelin (open circle), and n-hexanoyl ghrelin (closed triangle) in GHS-R-expressing cells are shown. Peptides (1×10^−8 M) were added at the time indicated by the arrow.

The mark [1] stands for this setting: peptides 1×10^−8 M, GHS-R-expressing cells.

Consider n-heptanoyl ghrelin, for which the “[Ca2+]i response in GHS-R-expressing cells” value (peptide 1×10^−8 M) was “induced [Ca^2+]i increases”. Further, under setting [1], the “agonistic activity for GHS-R (AUC) relative to n-hexanoyl ghrelin” value is recorded as “three times higher” and the “agonistic activity for GHS-R calculated from AUC of the response curve, relative to n-octanoyl ghrelin” value was “approximately 60%”.
